# Source: PMC12434534, “Synthesis and Antiviral Evaluation of Unexplored Dioxolane-Derived 7‑Deazapurine Nucleoside Analogues against Epstein–Barr Virus (EBV)” (ACS Medicinal Chemistry Letters, 2025)
# System: EBV
# Experiment: Anti-EBV assay: reduction of EBV DNA synthesis (qPCR) in TPA-induced P3HR-1 cells
# Conditions: selectivity index = CC50/EC50, P3HR-1 cells
# Procedure: The antiviral potency of all synthesized nucleosides was evaluated by in-vitro cell-based assays. P3HR-1 cells were seeded in 24-well plates at a density of 1 × 10^6 cells/mL. EBV replication was induced by adding 25 ng/mL 12-O-tetradecanoylphorbol 13-acetate (TPA) (Sigma–Aldrich, Bornem, Belgium) to the growing cells. The next day, cells were washed and resuspended in fresh medium in the presence or absence of various concentrations of synthesized nucleosides (12–19). Ganciclovir (GCV) was used as antiviral control. On day 5 post-induction, total cellular DNA was extracted (QIAamp DNA kit; Qiagen Benelux B.V, Venlo, The Netherlands), and viral DNA was quantified by quantitative PCR (qPCR) using an ABI Prism 7500 Sequence Detection System (Applied Biosystems, Foster City, CA). Thermocycling conditions for all qPCRs were done following the manufacturer’s instructions. […] The results were obtained as a means from at least three independent experiments. The selectivity index of the compound was determined by the ratio of CC50/EC50. […]
# Real-time PCR detection of viral DNA: EBV DNA was extracted with a QIAGEN Dneasy Blood and Tissue Kit. […] DNA concentration (ng/μL) was determined with a Nanophotometer (IMPLEN). The Real -time PCR was performed using QuantiTect Sybr Green PCR Kit. […]
smiles,measurement,value
Nc1ncnc2c1c(F)cn2[C@H]1CO[C@@H](CO)O1 [Compound 13],"SI (CC50/EC50), EBV",59
